The list is not random: actives were taken first. Their share in the collection is about 0.45%.
DDE Tn7 FP inh – disrupts Tn7 cyclic peptide binding to fibrin D-Dimer-E complex. AID 720508. 0.13% of 370,000 active. inhibition, % at 8.3 µM. FP displacement of FITC-Tn7 peptide from fibrin DD(E); 0% = median of compound wells per plate. P02675;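 active = inhibition above the mean of compounds falling within the control limits plus 3 SD of them, cut at about 14% in these data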;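 also: 0% = plate median of compound wells and 100% = 10 µM Aha-Tn7 peptide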
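Also added: labelled Tn7 tracer, 0.1 µM; Assay system: human fibrin DD(E) protein; Amount: 2 µM fibrin DD(E); Schedule: 10 min compound pre-incubation, 3 h probe incubation at room temperature; Repeats: one replicate per compound; Read-out basis: percent inhibition; Measured by: fluorescence polarization of the labelled Tn7 tracer.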
DDE Tn6 FP inh – inhibitors of Tn6 peptide binding to human fibrin DD(E); P02675; inhibition, % at 8.3 µM; AID 720509; 0.21% of 370,000 active; Fibrin DD(E) TRITC-Tn6 fluorescence polarization displacement;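 active = inhibition above a per-campaign cutoff: mean of compounds within control limits plus 3 SD, cut at about 15% in these data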;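 also: 0% = median of all compound wells on the plate and 100% = blocking peptide control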
UUG fidelity – alters start codon recognition fidelity in yeast; AID 602363; activity score, % at 18.7 µM; 350,000 tested, 0.13% active; S. cerevisiae UUG-firefly luciferase reporter, luminescence/redox ratio;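 active means replicate mean at a twofold rise or more, about +100% in these data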;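 further: firefly luciferase made from a UUG start codon reports start codon fidelity; reporter light over untreated wells divided by growth signal over untreated wells; some hits fall short of that in this replicate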
PglD DTNB – PglD (C. jejuni) enzyme inhibition. AID 602405. purified PglD enzyme, DTNB colorimetric CoA detection. 0.098% of 360,000 active. inhibition, % at 12.5 µM; in the data active = inhibition above about 16%, passing the limit was not always enough
DDE Tn6 FP ctr – counter-screen hit for Tn6 peptide-fibrin DD(E) binding disruption; shares compounds with DDE Tn6 FP inh; TRITC-Tn6 fluorescence polarization displacement; 0% = median of compound wells, not DMSO; inhibition, % at 8.3 µM; 2% of 680 active;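 active = inhibition above the mean of test compounds lying between the control limits plus 3 SD of those, cut at about 14% in these data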;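 also: 0% = median of compound wells and 100% = wells with Aha-Tn7 blocking peptide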
DDE Tn6 confirm – confirmation of inhibitors of Tn6 binding to human fibrin DD(E); inhibition, % at 8.3 µM; shares compounds with DDE Tn6 FP inh; FP displacement of TRITC-Tn6 peptide from DD(E); 0% = per-plate median of test wells; 10% of 680 active;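 active = inhibition above the mean of compounds lying within the control limits plus 3 SD, cut at about 16% in these data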;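 also: 100% = high control wells holding a competing inhibitor peptide at 10 µM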
* marks the source's active call; other numbers are inactive results; nt = no result.

Short keys: A = DDE Tn7 FP inh; B = DDE Tn6 FP inh; C = UUG fidelity; D = PglD DTNB; E = DDE Tn6 FP ctr; F = DDE Tn6 confirm
CC1CCC/C(=C\Nc2ccc(O)cc2)C1=O (stereo not given)
  A = 4	B = 17*	C = -6	D = -2	E = -7	F = -10
CC(=O)NC(Cc1ccccc1)C(=O)N1CCN(C(=O)c2cccs2)CC1 (stereo not given)
  A = 1	B = 17*	C = 7	D = 0	E = -9	F = -8
Cc1c(C)n(C)c2ccc(C(=O)NCCCN3CCN(C)CC3)cc12
  A = -3	B = -2	C = -11	D = 3	E = nt	F = nt
Cc1c(C)n(C)c2ccc(C(=O)NCc3cccs3)cc12
  A = -6	B = 35*	C = -14	D = 0	E = 2	F = 2
Cn1c(=O)[nH]c(=O)c2c1nc(NCCCn1ccnc1)n2Cc1ccc(F)cc1
  A = 7	B = 15*	C = -13	D = -2	E = 4	F = 1
C[C@H](CO)N1C[C@H](C)[C@H](CN(C)C(=O)Nc2cccc3ccccc23)Oc2ccc(NS(=O)(=O)c3ccc(Cl)cc3)cc2CC1=O
  A = nt	B = nt	C = -18	D = 0	E = nt	F = nt
COc1ccccc1C(=O)NC(=O)COC(=O)c1ccc(NC(=O)CC#N)cc1
  A = 2	B = 18*	C = -16	D = 5	E = 3	F = -1
COc1ccccc1C(=O)NC(=O)COC(=O)c1ccc([N+](=O)[O-])cc1
  A = 3	B = -1	C = nt	D = nt	E = nt	F = nt
O=c1ccc2c(-c3ccccc3)c3ccc(O)cc3oc-2c1
  A = -7	B = 68*	C = -13	D = 6	E = 53*	F = 38*
CO[C@H]1CN(C)C(=O)c2ccc(NC(=O)C3CC3)cc2OC[C@@H](C)N(Cc2ccncc2)C[C@@H]1C
  A = nt	B = nt	C = nt	D = -1	E = nt	F = nt
CN(C)c1ccc2nc3c(=O)[nH]c(=O)nc-3n(CC(O)C(O)C(O)CO)c2c1 (stereo not given)
  A = 0	B = 73*	C = 2	D = 1	E = -11	F = 12
Cc1ncc(C(O)c2ccc(N(C)C)cc2)n1Cc1ccccc1 (stereo not given)
  A = 6	B = 9	C = 4	D = 0	E = nt	F = nt
COc1ccc(CN2C[C@@H](C)[C@@H](OC)CN(C)C(=O)c3cc(NC(C)=O)ccc3OC[C@H]2C)cc1
  A = nt	B = nt	C = -8	D = 0	E = nt	F = nt
COc1cccc(C(=O)NCc2ccc3c(c2)cc(C)n3C)c1
  A = 1	B = 22*	C = nt	D = nt	E = -3	F = -6
COc1ccc(CC(=O)NCc2ccc3c(c2)cc(C)n3C)cc1
  A = 4	B = -3	C = 1	D = 0	E = nt	F = nt

Further compounds follow:
Short keys: A = DDE Tn7 FP inh; B = DDE Tn6 FP inh; C = UUG fidelity; D = PglD DTNB; E = DDE Tn6 FP ctr; F = DDE Tn6 confirm
COc1ccc(C(=O)NCc2ccc3c(c2)cc(C)n3C)cc1OC
  A = 4	B = 37*	C = -6	D = 2	E = 1	F = 1
COc1ccc(/C=C\C(=O)NCc2ccc3c(c2)cc(C)n3C)cc1OC
  A = -1	B = 30*	C = -21	D = -3	E = 1	F = 5
CCOC(=O)NCc1ccc2c(c1)cc(C)n2C
  A = -4	B = 10	C = -6	D = -1	E = nt	F = nt
CNC(=O)C[C@H]1CC[C@@H]2[C@H](COc3ccc(NC(=O)Cc4cccs4)cc3C(=O)N2C)O1
  A = nt	B = nt	C = 12	D = 0	E = nt	F = nt
C[C@@H]1CN([C@@H](C)CO)C(=O)c2cc(NC(=O)c3ccccc3)ccc2O[C@@H](C)CCCCO[C@H]1CN(C)Cc1ccccc1
  A = nt	B = nt	C = 18	D = 0	E = nt	F = nt
C[C@H]1CCCCO[C@@H](CN(C)C(=O)Nc2ccc(C(F)(F)F)cc2)[C@@H](C)CN([C@@H](C)CO)C(=O)c2cc(NC(=O)NC3CCCCC3)ccc2O1
  A = nt	B = nt	C = -6	D = 1	E = nt	F = nt
Cc1nn2c(-c3ccc(S(=O)(=O)N4CCN(CCO)CC4)o3)nnc2c2ccccc12
  A = 5	B = 5	C = 0	D = -2	E = nt	F = nt
COc1ccc(-c2nnc3c4ccccc4c(C)nn23)cc1S(=O)(=O)N1CCN(CCO)CC1
  A = -3	B = 23*	C = -9	D = -6	E = 3	F = 0
c1cc2c3c(cccc3c1)C(N1CCCCCC1)=N2
  A = 4	B = -2	C = -10	D = 2	E = nt	F = nt
c1ccc2c(c1)CCN(C1=Nc3cccc4cccc1c34)C2
  A = -4	B = 18*	C = nt	D = nt	E = -7	F = 63*
O=C(Oc1ccc(N(Cc2cccs2)C2=NS(=O)(=O)c3ccccc32)cc1)c1ccc(Cl)cc1
  A = 7	B = 17*	C = -5	D = -5	E = 9	F = 3
O=C(Oc1ccc(N(Cc2cccs2)C2=NS(=O)(=O)c3ccccc32)cc1)c1ccccc1
  A = -3	B = -1	C = -12	D = 0	E = nt	F = nt
CN1CCN(c2cc(N3CCN(C(=O)c4ccco4)CC3)c3c4c(onc24)-c2ccccc2C3=O)CC1
  A = nt	B = nt	C = -5	D = -1	E = nt	F = nt
O=C(O)CCCNc1cc(N2CCN(C(=O)c3ccco3)CC2)c2noc3c2c1C(=O)c1ccccc1-3
  A = -1	B = 32*	C = -14	D = 3	E = -9	F = 58*
COc1cc(NC(=O)CN(C)Cc2ccc(OC(F)F)cc2)c(C)cc1[N+](=O)[O-]
  A = 4	B = 9	C = nt	D = nt	E = nt	F = nt

Five compounds out of the list, ordered by molecular weight, falling:
Short keys: A = DDE Tn7 FP inh; B = DDE Tn6 FP inh; C = UUG fidelity; D = PglD DTNB; E = DDE Tn6 FP ctr; F = DDE Tn6 confirm
C[C@@H]1CN([C@@H](C)CO)C(=O)c2cc(NC(=O)c3ccccc3)ccc2O[C@@H](C)CCCCO[C@H]1CN(C)Cc1ccccc1
  A = nt	B = nt	C = 18	D = 0	E = nt	F = nt
O=C(Oc1ccc(N(Cc2cccs2)C2=NS(=O)(=O)c3ccccc32)cc1)c1ccc(Cl)cc1
  A = 7	B = 17*	C = -5	D = -5	E = 9	F = 3
CN1CCN(c2cc(N3CCN(C(=O)c4ccco4)CC3)c3c4c(onc24)-c2ccccc2C3=O)CC1
  A = nt	B = nt	C = -5	D = -1	E = nt	F = nt
COc1ccc(-c2nnc3c4ccccc4c(C)nn23)cc1S(=O)(=O)N1CCN(CCO)CC1
  A = -3	B = 23*	C = -9	D = -6	E = 3	F = 0
COc1ccc(/C=C\C(=O)NCc2ccc3c(c2)cc(C)n3C)cc1OC
  A = -1	B = 30*	C = -21	D = -3	E = 1	F = 5

Continued.
Values run as follows: DDE Tn7 FP inh	DDE Tn6 FP inh	UUG fidelity	PglD DTNB	DDE Tn6 FP ctr	DDE Tn6 confirm
- COc1cc(NC(=O)CN(C)Cc2cccc(F)c2)c(C)cc1[N+](=O)[O-]
→ -2	17*	nt	nt	9	3
- Cc1c(S(=O)(=O)N2CCN(c3cccc(Cl)c3)CC2)c(=O)n(C)c(=O)n1C
→ 0	-6	-16	1	nt	nt
- Cn1c(N)c(S(=O)(=O)N2CCN(c3cccc(Cl)c3)CC2)c(=O)n(C)c1=O
→ 5	16*	-3	10	4	2
- COc1cc(OC)cc(-c2c(-c3ccc(F)cc3)c3cc(-c4ccc(SC)cc4)ccc3n2C)c1
→ -2	1	-13	0	nt	nt
- COc1cc(OC)cc(-c2c(-c3ccc(F)cc3)c3cc(-c4ccc5c(c4)OCCO5)ccc3n2C)c1
→ -1	53*	0	4	-8	-6
- CN1C(=O)c2cc(NC(=O)C3CCCC3)ccc2OC[C@@H]2O[C@@H](CC(=O)O)CC[C@H]21
→ nt	nt	-11	2	nt	nt
- O=C(O)c1ccccc1Sc1c([N+](=O)[O-])cc(C(F)(F)F)cc1[N+](=O)[O-]
→ 12	35*	nt	nt	0	0
- COCCNC(=O)C[C@H]1C[C@H]2c3cc(NS(=O)(=O)c4ccc(F)cc4)ccc3O[C@H]2[C@@H](CO)O1
→ nt	nt	7	9	nt	nt
- CCN1C=C(C(=O)OC)C(c2cccc(OC)c2OC)C(C(=O)OC)=C1
→ 12	17*	nt	nt	4	1
- COC(=O)C1=CN(Cc2ccc(OC)c(OC)c2)C=C(C(=O)OC)C1c1cccc(OC)c1OC
→ -2	2	2	7	nt	nt
- CCCS(=O)(=O)N1CCN(C(=O)c2cccnc2)CC1
→ 0	-3	-4	-1	nt	nt
- CCCS(=O)(=O)N1CCN(C(=O)c2ccc(-c3ccccc3)cc2)CC1
→ 11	15*	2	0	-4	-7
- Cc1ccc(Cn2ccsc2=NC(=O)COC(=O)c2ccc(NC(=O)CC#N)cc2)cc1
→ -4	16*	nt	nt	-2	-16
- COCC#Cc1cnc2c(c1)C(=O)N([C@H](C)CO)C[C@H](C)[C@@H](CN(C)C(=O)Cc1cccnc1)O2
→ nt	nt	13	4	nt	nt
- CO[C@@H]1CN(C)C(=O)c2ccc(NS(C)(=O)=O)cc2OC[C@H](C)N(Cc2cncnc2)C[C@@H]1C
→ nt	nt	-7	5	nt	nt
- COc1ccc(S(=O)(=O)N(C)C[C@@H]2Oc3ccc(NC(=O)Nc4ccc(C(F)(F)F)cc4)cc3C(=O)N([C@H](C)CO)C[C@@H]2C)cc1
→ nt	nt	-7	-3	nt	nt

High-throughput results as filed in PubChem BioAssay.
